Assay results taken from patent US9463252B2, “Auristatin drug linker conjugates” (priority 2008, dated 2016).

Experiment: Tolerability (MTD) of conjugates in mice
Assay type: in vivo, mouse
Settings: h1F6 conjugates; for tolerability at 100 mg/kg dose (in words): single dose 100 mg/kg
Method: The tolerability, measured as maximum tolerated dose (MTD), was determined in mice based on animals' weight loss after treatment. Animals were usually monitored for 14 days. A conjugate is considered to be tolerated at a determined dose if single iv treatment at such dose results in a transient weight loss of no more than 20% of initial body weight of animals and no other signs of toxicity are observed. […] AF-Met-(D)Lys and AF-Asn-(D)Lys conjugates were tolerated at doses as high as 100 mg/kg (FIG. 7). Corresponding conjugates of auristatins containing Methionine (AM) and Tryptophan (AW) at the C-terminal position of the drug were tolerated even better, up to 150 mg/kg (FIG. 8). […] Thus, the Auristatin-Dipeptide Drug Linkers provide ADCs with significant therapeutic window for therapeutic treatment (e.g., cancer).

Row | Substance | tolerability at 100 mg/kg dose (in words) | tolerability at 50 mg/kg dose (in words) (single dose 50 mg/kg, FIG. 15)
1 | MMAF-Methionine-(D)Lysine-diaminoethane-propionyl maleimide [MMAF-Met-(D)Lys] | animal loss | –
2 | AF-Methionine-diaminoethane-propionyl maleimide | – | toxic
3 | AF-Methionine-(D)Lysine-diaminoethane-propionyl maleimide [AF-Met-(D)Lys] | tolerated | –
